Laboratory results published in patent US20130330358A1, “CRYSTAL STRUCTURE AND PEPTIDE INHIBITORS OF HAUSP DEUBIQUITINASE” (priority 2011, published 2013).

Chains of the proteins cited; added tags and fusions are not shown. Residues count along the entry.
UniProt Q93009, 62-205: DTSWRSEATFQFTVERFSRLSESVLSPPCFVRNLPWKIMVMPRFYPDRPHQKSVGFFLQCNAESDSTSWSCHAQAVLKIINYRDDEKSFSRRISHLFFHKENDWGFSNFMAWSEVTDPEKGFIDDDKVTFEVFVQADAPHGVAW

Assays:
HAUSP TRAF domain = biological target: T1, HAUSP TRAF domain (Homo sapiens, UniProt Q93009); experiment: Competitive ITC: vIRF4^202-216 titrated into cellular substrate peptide-TRAF mixtures; assay type: binding
T1 construct: HAUSP^62-205, and HAUSP^62-560 were fused to a hexahistidine-tag2 and expressed in E. coli BL21 (DE3) RIPL cells; hexahistidine (cleaved yes); made in house; host or cells: E. coli BL21 (DE3) RIPL

[1] = biological target: T2, HAUSP TRAF domain HAUSP^62-205 (Homo sapiens, UniProt Q93009); experiment: biochemical; assay type: binding
T2 construct: HAUSP^62-205, and HAUSP^62-560 were fused to a hexahistidine-tag2 and expressed in E. coli BL21 (DE3) RIPL cells; hexahistidine (cleaved yes); made in house; host or cells: E. coli BL21 (DE3) RIPL
Method: FIG. 5. Typical isothermal titration calorimetric measurements of the interactions between the HAUSP TRAF domain and the vIRF4 protein derivatives or other peptides. Purified proteins and synthesized peptides were reconstituted in 150 mM NaCl and 10 mM HEPES (pH 7.0). The calorimetric assays were performed using a VPITC system. All experiments were carried out with a stirring speed of 300 rpm at 20° C., and the thermal power was recorded every 10 s. Data were analyzed using the ORIGIN software package (version 7.0). […] Each titration against the HAUSP TRAF domain is indicated in each panel.
Purified proteins and synthesized peptides (Peptron Inc., Deajeon, Korea) were reconstituted in 150 mM NaCl and 10 mM HEPES (pH 7.0). The calorimetric assays were performed using a VP-ITC system (MicroCal Inc., Northampton, Mass.). Samples were degassed by vacuum aspiration for 15 min prior to loading. All experiments were carried out with a stirring speed of 300 rpm at 20° C., and the thermal power was recorded every 10 s. Data were analyzed using the ORIGIN software package (version 7.0) supplied with the instrument. […]

**Q.** For `CC[C@H](C)[C@H](NC(=O)[C@H](Cc1c[nH]c2ccccc12)NC(=O)[C@@H](NC(=O)[C@@H](N)CO)C(C)C)C(=O)N1CCC[C@H]1C(=O)N[C@H](C(=O)N[C@@H](CC(N)=O)C(=O)N[C@@H](CCC(=O)O)C(=O)NCC(=O)N[C@@H](C)C(=O)N[C@@H](CO)C(=O)N[C@H](C(=O)N[C@@H](CO)C(=O)NCC(=O)N[C@@H](CCSC)C(=O)O)[C@@H](C)O)C(C)C` [vIRF4^202-216], which Kd (HAUSP TRAF domain; vIRF4^202-216 to MDM2^137-152-TRAF) is on record?
**A.** Its Kd is 92 nM.

**Q.** What about the Kd (HAUSP TRAF domain; vIRF4^202-216 to p53^350-364-TRAF) of the same molecule?
**A.** The Kd was 23 nM.

**Q.** What about the Kd (HAUSP TRAF domain; vIRF4^202-216 to p53^355-369-TRAF) of the same molecule?
**A.** Its Kd is 28 nM.

**Q.** What does the source list for `CSCC[C@H](NC(=O)CNC(=O)[C@H](CO)NC(=O)[C@@H](NC(=O)[C@H](CO)NC(=O)[C@H](C)NC(=O)CNC(=O)[C@@H](N)CCC(=O)O)[C@@H](C)O)C(=O)O` [vIRF4^209-216]?
**A.** Kd [1]: 9570 ± 190 nM; fold decrease in TRAF binding affinity ([1]; compared with the vIRF4^202-216 peptide): 25 fold
